The test system of data set [1] is important organs (heart, liver, spleen, lung, kidney). The note with it: B16-F10 model, intravenously every other day for 5 times, 2 mg kg^-1, after 30 days.
Data set [2] concerns mouse skin melanoma cells B16-F10. The note with it: B16-F10, different concentration gradients, in the dark.

Consider “biliverdin-Tb-VHFFKNIVTPTP conjugate [Example 17]”, for which the “influence on important organs” value in data set [1] is listed as “does not cause serious damage to important organs”.
On to “biliverdin-Zn-NYSKPTDRQYHF conjugate [Example 3]”, for which the “cytotoxicity (cell activity)” value in data set [2] is “no obvious cytotoxicity”.

These data come from US20230190933A1, “Immunologically Active Peptide-Biliverdin Conjugate, Preparation Method Therefor and Application Thereof” (priority 2020, published 2023).
